Source: US20040121410A1, “Pain signaling molecules” (priority 2002, published 2004)
Entries after “also recorded” stand apart in the source; their conditions may differ. Like-named read-outs stand apart in the source and are kept apart here. One block for each compound: values may come before it.

Experiments:
MrgA1-GFP [1] = molecular target: T1, MrgA1-GFP (Mus musculus, UniProt Q91WW5); assay: single-cell calcium assay in Gα KO MEFs transfected with MrgA1-GFP; assay type: cell-based; design: expressed in transfected cells; host or cells: Gαq/11 KO or Gα12/13 KO mouse embryonic fibroblasts (MEFs)
T1 sequence (Q91WW5 1-304): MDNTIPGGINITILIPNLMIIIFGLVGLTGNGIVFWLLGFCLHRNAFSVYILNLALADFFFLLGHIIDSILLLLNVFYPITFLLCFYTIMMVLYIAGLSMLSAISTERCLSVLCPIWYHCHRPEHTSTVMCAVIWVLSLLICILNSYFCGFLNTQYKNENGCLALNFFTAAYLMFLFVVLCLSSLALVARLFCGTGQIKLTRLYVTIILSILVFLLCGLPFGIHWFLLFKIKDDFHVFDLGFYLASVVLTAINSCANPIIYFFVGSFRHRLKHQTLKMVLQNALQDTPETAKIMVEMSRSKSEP
From the text: (§1) FIGS. 4A-F show the heterotrimeric G protein coupling of MrgA1 and MrgC11. […] All results shown are the mean of triplicate determination ±SEM. FIGS. 4B and E show the effect of Gα subunit KO on [Ca^2+]i mobilizatoin. KO MEFs were derived from KO mice at embryonic 8.5 and 9.5 days. Gα12/13 KO MEF (closed triangle) and Gαq/11 KO MEF (open circles) were transfected with the cDNAs encoding the MrgA1-GFP (FIG. 4B) or MrgC11-GFP (FIG. 4E). […] Positively transfected cells were selected by their green fluorescence excited at 480 nm (GFP-positive cells). […] FIGS. 4C and F show cAMP production in HEK-MrgA1 (FIG. 4C) or HEK-MrgC11 (FIG. 4F). Cells were stimulated with various concentrations of FLRFa or γ2-MSH in the presence or absence of 10 μM forskolin. Each value represents the mean ±SEM for three independent experiments.
Wild type and Ga knockout (KO) mouse embryonic fibroblasts (MEFs) were prepared and cultured from embryonic day 8.5 to 9.5 embryos as described in Kabarowski et al. (Proc. Natl. Acad. Sci. USA 97:12109-12114 (2000)). HEK293 and Ga KO MEFs were cultured in DMEM/10% FBS. U73122, U73343 and thapsigargin (TG) were purchased from Calbiochem. Fura-2/AM was purchased from Molecular Probes. All other reagents were from Sigma.
MEF cell lines derived from Gαq/11 or Gα12/13 double gene KO mice were used to test whether activation of MrgA1 or MrgC11 receptors can mobilize calcium responses through the direct participation of Gαq/11. The Gαq/11 KO MEFs or Gα12/13 KO MEFs were transfected with cDNAs encoding either MrgA1-GFP or MrgC11-GFP receptor, and the ability of agonists to increase [Ca^2+]i was measured in individual cells. The GFP receptor fusion proteins were used to identify positively transfected cells, and single-cell calcium assays were performed as described in Dong et al., supra. […] By using a dual wavelength spectrofluorometer coupled to an inverted fluorescence microscope, GFP-positive cells were identified by using an excitation wavelength of 488 nm, a dichroic 505 nm long-pass filter, and an emitter filter at a band pass of 535 nm (Chroma Technology, Brattleboro, Vt.). […]

MrgA1 [2] = molecular target: T2, MrgA1 (Mus musculus, UniProt Q91WW5); design: host or cells: HEK293 cells expressing Gα15 (transient overexpression); settings: transiently overexpressed MrgA1, HEK293 cells expressing Gα15; previously reported; cited from earlier work
T2 sequence (Q91WW5 1-304): T1 sequence (Q91WW5 1-304)

MrgC11 = molecular target: T3, MrgC11 (Mus musculus, UniProt Q8CIP3); assay: calcium-mobilization assay (FLEXstation, Fura-2/AM) in HEK-MrgC11 cells; assay type: cell-based
T3 construct: A full-length MrgC11 cDNA was cloned from the newborn DRG cDNA library; expressed in transfected cells
T3 sequence (Q8CIP3 1-322): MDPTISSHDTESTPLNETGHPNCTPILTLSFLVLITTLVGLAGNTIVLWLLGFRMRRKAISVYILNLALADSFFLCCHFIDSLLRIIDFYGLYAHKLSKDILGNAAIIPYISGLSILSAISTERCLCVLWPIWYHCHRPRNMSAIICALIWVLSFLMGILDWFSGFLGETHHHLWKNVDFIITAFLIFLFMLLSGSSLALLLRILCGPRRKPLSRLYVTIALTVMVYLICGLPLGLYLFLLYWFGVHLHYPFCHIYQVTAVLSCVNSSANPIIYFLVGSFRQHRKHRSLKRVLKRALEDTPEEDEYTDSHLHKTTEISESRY
Method: (§2) To address the questions of the ligand selectivity of the MrgC11 receptor, human embryonic kidney (HEK) 293 cells stably expressing either MrgA1 or MrgC11 were established. Neuropeptides were screened to identify ligands and agonists.
(§3) HEK293 cells were transfected with cDNA encoding the MrgAl-GFP, mNPFF2-GFP or MrgC11-GFP in pcDNA3.1/Zio(+) plasmid (Invitrogen) using the FuGENE6 transfection reagent (Roche Molecular Biomolecules). The transfected cells were selected with 400 μg/ml zeocin in DMEM supplemented with 10% FBS. Each cloned cell was further selected for membrane localization of receptor-GFP fusion protiens.
(§4) The selected cells were maintained in the same medium supplemented with 200 μg/ml zeocin. The stable cell lines were designated HEK-MrgA1, HEK-NPFF2 and HEK-MrgC11.
(§5) To identify putative ligands for MrgC11 and MrgA1 receptors, HEK-MrgC11 or HEKMrgA1 stable cell lines were screened in a calcium-mobilization assay using a fluorescence-imaging plate reader (FLEXstation). Briefly, HEK-MrgA1 or HEK-MrgC11 were plated in 96-black-well plates (Corning) and grown to confluence. After incubation with Fura-2/AM for >20 min, cells were washed and equilibrated for 20 min with HBSS (Hanks' balanced salt solution) assay buffer. The fluorescence emission caused by intracellular calcium mobilization elicited by agonists was determined by using a fluorometric imaging plate reader, Flexstation (Molecular Devices). All peptides were from Phoenix Pharmaceuticals (St. Joseph, Mo.), Bachem, American Peptide (Sunnyvale, Calif.), or Sigma.

MrgA1 [3] = molecular target: T2, MrgA1; assay: cAMP production in HEK-MrgA1 (radioimmuno assay); assay type: cell-based; design: expressed in transfected cells
From the text: as §1
It is also possible that these receptors are coupled to the Gαi/o or to the Gαs family of heterotrimeric G proteins. Thus, cAMP production was measured in the presence of varioys concentrations of agonists and presence or absence of forskolin.
A radioimmuno assay kit (Amersham Pharmacia) was used to measure cAMP. HEK-MrgA1 or HEK-MrgC11 were cultured in 6-well plates coated with matriGel for ˜26 h at 37° C. in growth medium. […] Quantitation of cAMP was then performed byusing a [^3H] cAMP displacement assay as described in Gilman et al. (Proc. Natl. Acad. Sci. USA 67:305-312 (1970)).

MrgA1-GFP [4] = molecular target: T1, MrgA1-GFP; assay: agonist-induced internalization of MrgA1-GFP; assay type: cell-based; design: expressed in transfected cells
Method: FIGS. 3A and C show serum starved (>4 hr) HEK-MrgA1 and HEK-MrgC11 cells. FIGS. 3B and D show HEK-MrgA1 or HEK-MrgC11 treated with the indicated agonists for 30 minutes at 37° C. Results are representative of three independent experiments, and the arrow indicates the internalization process.
The ability of agonists to induce the internalization of MrgA1 or MrgC11 was measured., as receptor internalization is a response of GPCRs to ligand stimulation.
Briefly, MrgC11-GFP or MrgA1-GFP stably expressing HEK293 cells were grown in 35 mm glass-bottomed dishes (Mat-Tek, Ashland, Mass.) in DMEM with 10% FBS. After 4-6 hours of serum starvation, cells were treated with agonists at 37° C. for 30 minutes. Cells were washed with PBS and fixed with 3.7% paraformaldehyde in PBS. The subcellular localization of Mrg-GFP was visualized under a Leica confocal fluorescence microscope with a ×20 or ×40 lens.

MrgA1 [5] = molecular target: T2, MrgA1; assay: calcium-mobilization assay (FLEXstation, Fura-2/AM) in HEK-MrgA1 cells; assay type: cell-based; design: expressed in transfected cells
Method: as §2, §3, §4, §5

[6] = Table 1, HEK-MrgC11 cells, FLEXstation assay, means ± SEM, triplicate, Inactive = no activation detected at concentrations up to 10 mM, read-out: EC50 MrgC11
[7] = Table 1, HEK-MrgA1 cells, FLEXstation assay, means ± SEM, triplicate, Inactive = no activation detected at concentrations up to 10 mM, read-out: EC50 MrgA1

calcium response, MrgA1 (MrgA1-GFP [1]; Gα12/13 KO MEF): robust, transient calcium responses
EC50 (MrgC11; [6]): 157 ± 12 nM
forskolin-induced cAMP accumulation (MrgA1 [3]; HEK-MrgA1, 10 μM forskolin): unable to inhibit
cAMP production (MrgA1 [3]; HEK-MrgA1, various concentrations, 10 minutes): No significant inhibition or activation
cells with internalization of MrgA1-GFP (MrgA1-GFP [4]; 3 μM FLRFa, 30 minutes at 37° C.): > 90 % of cells
rapid internalization of MrgA1-GFP (MrgA1-GFP [4]; room temperature, same conditions): not observed
EC50 (MrgA1 [5]; [7]): 402 ± 21 nM
SMILES: CC(C)C[C@H](NC(=O)[C@@H](N)Cc1ccccc1)C(=O)N[C@@H](CCCNC(=N)N)C(=O)N[C@@H](Cc1ccccc1)C(N)=O [FLRF-amide]
calcium response, MrgA1 (MrgA1-GFP [1]; Gαq/11 KO MEF cotransfected with wild-type Gαq): rescued; also recorded: restored responsiveness
calcium response, MrgA1 (MrgA1-GFP [1]; Gαq/11 double KO MEF): failed to respond; also recorded: completely abrogated
EC50 (MrgA1 [2]): ~20 nM

SMILES: CSCC[C@H](NC(=O)[C@@H](N)Cc1ccccc1)C(=O)N[C@@H](CCCNC(=N)N)C(=O)N[C@@H](Cc1ccccc1)C(=O)O [FMRF-OH]
EC50 (MrgC11): 544 ± 117 nM
EC50 (MrgA1 [5]): 8200 nM
fold decrease in activity for MrgA1 (MrgA1 [5]; relative to the parent peptide, modification named in the text (deamidation, D-isomer)): ~20 fold

EC50 (MrgC11; [6]): 114 ± 32 nM
EC50 (MrgA1 [5]; [7]): 420 ± 71 nM
SMILES: CSCC[C@H](NC(=O)[C@@H](N)Cc1ccccc1)C(=O)N[C@@H](CCCN=C(N)N)C(=O)N[C@@H](Cc1ccccc1)C(N)=O [FMRF-amide]

EC50 (MrgC11; [6]): 126 ± 28 nM
EC50 (MrgA1 [5]; [7]): > 10000 nM
SMILES: N=C(N)NCCC[C@H](NC(=O)[C@H](CCC(N)=O)NC(=O)[C@@H]1CCCN1)C(=O)N[C@@H](Cc1ccccc1)C(N)=O [PQRF-amide]
